Measured values from ChEMBL document CHEMBL3853313, “Iminoguanidines as Allosteric Inhibitors of the Iron-Regulated Heme Oxygenase (HemO) of Pseudomonas aeruginosa” (J Med Chem, 2016).

Molecular target: T1, Heme oxygenase (Pseudomonas aeruginosa) (UniProt O69002)
T1 sequence (whole entry): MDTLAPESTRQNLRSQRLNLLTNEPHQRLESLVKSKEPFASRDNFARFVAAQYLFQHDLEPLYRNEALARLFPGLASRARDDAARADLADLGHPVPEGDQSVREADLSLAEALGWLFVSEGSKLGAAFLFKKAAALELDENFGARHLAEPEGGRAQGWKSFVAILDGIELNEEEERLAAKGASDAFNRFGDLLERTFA
Experiment: Binding affinity to Pseudomonas aeruginosa holo-HemO (53 to 62 residues) at 30 mins by HXMS method

Question: How did the Activity turn out when CN(C)c1ccc(/C=N/NC(=N)N)cc1.Cl was run?
Answer: Active

Calls of active or inactive are those of the source. No cut-off for these calls is given here.
